Results on 2 molecules are retold here after PubChem BioAssay AID628 (Vanderbilt High Throughput Screening Facility, 2007).

Amino acid sequences for entries named in this document (tags omitted). A change or cut given only in a name is not applied to a line headed by its entry.
UniProt P08482: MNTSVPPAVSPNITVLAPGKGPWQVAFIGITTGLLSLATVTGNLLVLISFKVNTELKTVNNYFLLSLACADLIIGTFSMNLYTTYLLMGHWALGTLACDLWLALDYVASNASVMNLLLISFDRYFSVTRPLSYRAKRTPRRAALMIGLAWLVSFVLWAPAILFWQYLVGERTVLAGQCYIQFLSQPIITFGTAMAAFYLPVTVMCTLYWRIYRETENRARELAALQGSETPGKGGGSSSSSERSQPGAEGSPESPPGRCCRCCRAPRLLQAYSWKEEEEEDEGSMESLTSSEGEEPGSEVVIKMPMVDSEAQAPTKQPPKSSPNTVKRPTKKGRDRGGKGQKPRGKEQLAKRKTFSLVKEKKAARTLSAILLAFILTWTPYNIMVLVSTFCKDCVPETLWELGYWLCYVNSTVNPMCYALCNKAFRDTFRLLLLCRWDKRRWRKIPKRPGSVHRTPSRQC

The entries are a selection whose mix differs from that of the whole data set. Activity calls are given as the source filed them.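 The calls were made as follows: active = calcium fluorescence response, raw or row-and-column corrected B-score, differing from the plate sample mean either way at a set confidence level, mostly lower; inactive = the rest.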

This test has as its target Muscarinic acetylcholine receptor M1 (Rattus norvegicus) (UniProt P08482). The experiment in a line: antagonists of rat M1 muscarinic receptor (AID 628). Conditions: CHO-M1 cells, Fluo-4 calcium, ACh EC80 antagonist mode; at 10 µM; stronger effect = lower value.
Consider `C[N+]1(C)[C@@H]2CC(OC(=O)[C@H](CO)c3ccccc3)C[C@H]1[C@@H]1O[C@@H]12` (some centres not stated), for which the B-score was active: -12.1.

In the case of `COc1ccc(CCN2CCC(Nc3nc4ccccc4n3Cc3ccc(F)cc3)CC2)cc1`, the B-score is active: -14.3.
